The record followed here is patent US11207431B2, “HDAC6 inhibitors and imaging agents” (The General Hospital Corporation, priority 2017, dated 2021).

The chains behind the UniProt entries cited, without tags or fusion partners. Where a name states a change or a piece, a line headed by the entry shows the natural chain unless it says otherwise.
UniProt P56524: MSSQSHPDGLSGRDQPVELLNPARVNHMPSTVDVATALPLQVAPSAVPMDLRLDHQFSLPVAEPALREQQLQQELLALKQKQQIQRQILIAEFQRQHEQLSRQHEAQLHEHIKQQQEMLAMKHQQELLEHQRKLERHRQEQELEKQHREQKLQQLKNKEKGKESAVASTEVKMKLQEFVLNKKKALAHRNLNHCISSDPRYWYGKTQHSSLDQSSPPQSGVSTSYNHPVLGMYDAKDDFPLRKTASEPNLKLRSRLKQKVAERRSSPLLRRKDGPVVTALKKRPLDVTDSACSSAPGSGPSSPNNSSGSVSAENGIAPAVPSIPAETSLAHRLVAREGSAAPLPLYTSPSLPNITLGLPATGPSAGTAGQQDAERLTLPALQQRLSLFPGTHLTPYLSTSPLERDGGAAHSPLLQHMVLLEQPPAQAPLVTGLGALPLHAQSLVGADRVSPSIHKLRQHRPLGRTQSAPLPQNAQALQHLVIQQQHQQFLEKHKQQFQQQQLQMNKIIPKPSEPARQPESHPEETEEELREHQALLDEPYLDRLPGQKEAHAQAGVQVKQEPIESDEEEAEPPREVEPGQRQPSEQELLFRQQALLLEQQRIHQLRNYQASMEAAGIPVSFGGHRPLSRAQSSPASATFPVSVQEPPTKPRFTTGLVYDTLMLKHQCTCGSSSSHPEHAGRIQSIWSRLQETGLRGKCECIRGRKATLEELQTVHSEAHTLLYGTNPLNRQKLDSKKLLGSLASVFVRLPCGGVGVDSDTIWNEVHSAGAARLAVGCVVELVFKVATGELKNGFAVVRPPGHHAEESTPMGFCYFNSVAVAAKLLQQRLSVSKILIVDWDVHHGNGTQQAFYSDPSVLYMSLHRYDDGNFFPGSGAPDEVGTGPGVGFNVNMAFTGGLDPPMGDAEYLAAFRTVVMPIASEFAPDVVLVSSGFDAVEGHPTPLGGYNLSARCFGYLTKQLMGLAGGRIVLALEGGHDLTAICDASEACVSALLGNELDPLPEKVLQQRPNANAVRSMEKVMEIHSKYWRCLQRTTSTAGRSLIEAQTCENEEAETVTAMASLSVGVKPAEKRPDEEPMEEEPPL
UniProt Q9UQL6: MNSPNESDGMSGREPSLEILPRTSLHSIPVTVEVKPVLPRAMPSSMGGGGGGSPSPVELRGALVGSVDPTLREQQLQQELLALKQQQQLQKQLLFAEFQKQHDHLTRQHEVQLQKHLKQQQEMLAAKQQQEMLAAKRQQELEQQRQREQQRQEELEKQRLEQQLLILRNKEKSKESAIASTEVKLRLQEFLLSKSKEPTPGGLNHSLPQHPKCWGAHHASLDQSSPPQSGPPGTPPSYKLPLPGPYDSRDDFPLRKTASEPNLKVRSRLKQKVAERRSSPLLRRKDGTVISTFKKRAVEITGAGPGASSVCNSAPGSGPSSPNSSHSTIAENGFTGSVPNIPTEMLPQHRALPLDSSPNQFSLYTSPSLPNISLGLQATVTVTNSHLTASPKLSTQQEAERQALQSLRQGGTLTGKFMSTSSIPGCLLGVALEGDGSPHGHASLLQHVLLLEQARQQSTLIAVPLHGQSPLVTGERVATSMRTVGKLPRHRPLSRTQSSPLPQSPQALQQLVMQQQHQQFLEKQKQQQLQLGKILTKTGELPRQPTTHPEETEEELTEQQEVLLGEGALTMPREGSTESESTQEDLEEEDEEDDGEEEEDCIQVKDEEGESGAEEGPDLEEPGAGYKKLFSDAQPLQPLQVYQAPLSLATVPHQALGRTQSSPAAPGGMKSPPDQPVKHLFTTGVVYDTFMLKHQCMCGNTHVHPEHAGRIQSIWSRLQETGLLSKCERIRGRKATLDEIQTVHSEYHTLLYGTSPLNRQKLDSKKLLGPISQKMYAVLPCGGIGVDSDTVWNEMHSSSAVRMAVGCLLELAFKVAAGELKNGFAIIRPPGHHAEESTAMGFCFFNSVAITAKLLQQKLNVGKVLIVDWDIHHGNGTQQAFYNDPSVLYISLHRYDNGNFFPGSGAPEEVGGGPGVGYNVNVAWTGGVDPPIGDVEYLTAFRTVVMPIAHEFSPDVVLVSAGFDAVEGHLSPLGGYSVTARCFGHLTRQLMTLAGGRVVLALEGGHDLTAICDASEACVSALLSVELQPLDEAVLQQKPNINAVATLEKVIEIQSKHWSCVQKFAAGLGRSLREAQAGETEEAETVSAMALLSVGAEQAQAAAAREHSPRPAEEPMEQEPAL
UniProt Q9BY41: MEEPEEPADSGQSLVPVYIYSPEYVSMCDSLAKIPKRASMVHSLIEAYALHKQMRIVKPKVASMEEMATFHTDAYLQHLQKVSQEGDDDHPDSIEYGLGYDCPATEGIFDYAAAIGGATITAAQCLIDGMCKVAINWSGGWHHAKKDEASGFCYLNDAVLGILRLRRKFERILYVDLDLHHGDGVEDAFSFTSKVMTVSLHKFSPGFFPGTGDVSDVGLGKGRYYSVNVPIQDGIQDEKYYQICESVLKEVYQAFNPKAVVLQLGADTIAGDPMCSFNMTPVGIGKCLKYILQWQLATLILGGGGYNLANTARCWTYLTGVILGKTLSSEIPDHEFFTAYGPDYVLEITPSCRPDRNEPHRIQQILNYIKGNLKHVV
UniProt Q9UKV0: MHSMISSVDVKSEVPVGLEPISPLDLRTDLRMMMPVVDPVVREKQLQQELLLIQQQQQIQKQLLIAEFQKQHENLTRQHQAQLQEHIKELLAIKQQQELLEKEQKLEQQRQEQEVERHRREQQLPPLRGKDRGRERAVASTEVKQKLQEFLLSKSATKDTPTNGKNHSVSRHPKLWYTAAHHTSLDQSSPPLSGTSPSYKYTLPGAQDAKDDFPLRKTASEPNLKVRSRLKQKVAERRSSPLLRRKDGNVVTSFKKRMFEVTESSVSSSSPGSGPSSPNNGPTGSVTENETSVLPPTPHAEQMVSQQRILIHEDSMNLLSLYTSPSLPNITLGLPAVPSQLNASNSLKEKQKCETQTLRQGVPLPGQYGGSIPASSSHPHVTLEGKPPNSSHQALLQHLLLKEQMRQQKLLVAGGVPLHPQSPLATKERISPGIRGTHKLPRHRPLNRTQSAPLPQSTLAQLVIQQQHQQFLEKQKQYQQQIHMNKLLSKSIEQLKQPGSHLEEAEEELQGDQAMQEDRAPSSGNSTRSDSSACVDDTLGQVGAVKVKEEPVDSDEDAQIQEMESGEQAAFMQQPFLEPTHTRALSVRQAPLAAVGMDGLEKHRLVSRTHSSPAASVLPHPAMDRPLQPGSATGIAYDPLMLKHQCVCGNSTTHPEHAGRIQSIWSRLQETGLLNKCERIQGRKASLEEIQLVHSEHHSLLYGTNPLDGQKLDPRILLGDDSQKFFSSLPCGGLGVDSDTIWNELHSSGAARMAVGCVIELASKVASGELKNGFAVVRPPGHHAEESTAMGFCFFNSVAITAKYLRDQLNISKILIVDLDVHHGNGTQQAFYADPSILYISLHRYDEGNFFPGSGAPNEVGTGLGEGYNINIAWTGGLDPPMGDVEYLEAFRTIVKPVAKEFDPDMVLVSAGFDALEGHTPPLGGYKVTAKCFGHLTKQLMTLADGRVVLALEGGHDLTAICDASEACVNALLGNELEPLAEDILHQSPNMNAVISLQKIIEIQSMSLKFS
UniProt Q96DB2: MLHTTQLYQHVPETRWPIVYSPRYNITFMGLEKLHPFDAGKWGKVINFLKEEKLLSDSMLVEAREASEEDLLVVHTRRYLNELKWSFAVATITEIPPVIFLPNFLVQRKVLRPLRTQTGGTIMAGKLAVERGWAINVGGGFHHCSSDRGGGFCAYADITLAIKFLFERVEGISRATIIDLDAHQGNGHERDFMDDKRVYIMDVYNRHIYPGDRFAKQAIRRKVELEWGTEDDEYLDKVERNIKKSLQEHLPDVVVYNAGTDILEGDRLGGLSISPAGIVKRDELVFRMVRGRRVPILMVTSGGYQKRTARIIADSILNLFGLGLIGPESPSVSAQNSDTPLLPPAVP

As usually defined, the IC50 is the point on the concentration scale where inhibition reaches its midpoint.

Targets include HDAC4 (Homo sapiens (Human), UniProt P56524); HDAC5 (Homo sapiens (Human), UniProt Q9UQL6); HDAC8 (Homo sapiens (Human), UniProt Q9BY41); HDAC9 (Homo sapiens (Human), UniProt Q9UKV0); HDAC11 (Homo sapiens (Human), UniProt Q96DB2).
What all share (assay): IC50 assay, BPS Biosciences fluorescence assay
Assay type in all cases: biochemical

As to TSA, the IC50 at HDAC4 amounted to 2900 nM; on HDAC5, 1700 nM; against HDAC8, 546 nM; against HDAC9, 3800 nM; on HDAC11, 10000 nM.
